Results published in ChEMBL document CHEMBL5236559 (J Med Chem, 2021).
Calls of active or inactive are those of the source. The calls are words filed in the database; no cut-off is given here.

How the values were obtained:
[1] = target: T1, Glutathione reductase, mitochondrial (Homo sapiens) (UniProt P00390); experiment: Inhibition of glutathione reductase (unknown origin) incubated for 30 mins in presence of NADPH by spectrophotometric method
T1 sequence (whole entry): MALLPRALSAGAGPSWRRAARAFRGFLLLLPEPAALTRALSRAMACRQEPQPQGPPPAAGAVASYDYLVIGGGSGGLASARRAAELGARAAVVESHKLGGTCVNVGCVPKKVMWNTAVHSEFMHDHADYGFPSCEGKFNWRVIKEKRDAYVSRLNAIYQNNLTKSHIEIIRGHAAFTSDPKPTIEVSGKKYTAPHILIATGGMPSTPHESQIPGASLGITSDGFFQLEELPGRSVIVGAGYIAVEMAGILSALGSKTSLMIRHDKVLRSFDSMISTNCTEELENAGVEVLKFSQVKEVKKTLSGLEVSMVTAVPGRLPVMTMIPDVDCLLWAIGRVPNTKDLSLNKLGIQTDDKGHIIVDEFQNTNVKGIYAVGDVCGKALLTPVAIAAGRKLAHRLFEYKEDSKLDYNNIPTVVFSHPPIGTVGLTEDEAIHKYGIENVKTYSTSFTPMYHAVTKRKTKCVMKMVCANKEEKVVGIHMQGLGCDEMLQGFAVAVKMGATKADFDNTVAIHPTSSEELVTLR

HL-60 [2] = experiment: Inhibition of TrxR in human HL-60 cells at 2 uM incubated for 24 hrs by endpoint insulin reduction assay relative to control
HL-60 [3] = experiment: Induction of apoptosis in human HL-60 cells incubated for 24 hrs by annexinV-FITC/propidium iodide staining based flow cytometry analysis; settings: dose 0.5-1 µM
HL-60 [4] = experiment: Induction of apoptosis in human HL-60 cells assessed as activation of caspase-3 expression at 0.5 to 1 uM incubated for 12 hrs by colorimetric assay; settings: dose 0.5-1 µM
HL-60 [5] = experiment: Induction of ROS production in human HL-60 cells assessed as increase in fluorescence intensity at 10 uM incubated for 2 hrs by DCFH-DA staining based fluorescent microscopic analysis
HL-60 [6] = experiment: Induction of apoptosis in human HL-60 cells assessed as increase in cleaved caspase-3 level incubated for 12 hrs by Western blot analysis; settings: dose 0.5-1 µM
HL-60 [7] = experiment: Induction of ROS production in human HL-60 cells assessed as increase in red fluorescence incubated for 2 hrs by DHE staining based fluorescent microscopic analysis; settings: dose 10.0 µM
HeLa = experiment: Cytotoxicity against human HeLa cells expressing TrxR assessed as reduction in cell viability incubated for 48 hrs by MTT assay
HL-60 [8] = experiment: Inhibition of TrxR activity in human HL-60 cells incubated for 8 hrs by TRFS-green staining based microscopic analysis; settings: dose 0.5-2 µM
HL-60 [9] = experiment: Induction of apoptosis in human HL-60 cells assessed as decrease in procaspase-3 level incubated for 12 hrs by Western blot analysis; settings: dose 0.5-1 µM
HL-60 [10] = experiment: Induction of apoptosis in human HL-60 cells at 0.5 to 1 uM incubated for 24 hrs by Hoechst 33342 Staining based assay; settings: dose 0.5-1 µM

## Nc1ccc([As]2SCCCS2)cc1
[1]
  inhibition: Active
HL-60 [2]
  inhibition: 40%

## Nc1ccccc1[As]1SCCCS1
HL-60 [3]
  Activity: Dose-Dependent Effect
HL-60 [4]
  Activity: Dose-Dependent Effect
HL-60 [5]
  Activity: Active
HL-60 [6]
  Activity: Dose-Dependent Effect
HL-60 [7]
  Activity: Dose-Dependent Effect
HeLa
  Activity: Active
[1]
  inhibition: Active
HL-60 [8]
  inhibition: Dose-Dependent Effect
HL-60 [2]
  inhibition: 70%
HL-60 [9]
  Activity: Dose-Dependent Effect
HL-60 [10]
  Activity: Active

## Nc1cccc([As]2SCCCS2)c1
[1]
  inhibition: Active
HL-60 [2]
  inhibition: 60%
